Experimental data from PubChem BioAssay AID588352 (The Scripps Research Institute Molecular Screening Center, 2011).
Only a part is listed here, and it is no random draw. Some salts or complexes appear as unconnected parts, following the source record. Active and inactive are the calls of the source.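 How the source made its calls: active means inhibition above a per-campaign cutoff, the mean of all compounds plus 3 SD (cut at about 60% in these data); inactive means the rest.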

By UniProt entry, the sequences of proteins in these tests, tags left out.
UniProt Q9Y6Q9, whole entry: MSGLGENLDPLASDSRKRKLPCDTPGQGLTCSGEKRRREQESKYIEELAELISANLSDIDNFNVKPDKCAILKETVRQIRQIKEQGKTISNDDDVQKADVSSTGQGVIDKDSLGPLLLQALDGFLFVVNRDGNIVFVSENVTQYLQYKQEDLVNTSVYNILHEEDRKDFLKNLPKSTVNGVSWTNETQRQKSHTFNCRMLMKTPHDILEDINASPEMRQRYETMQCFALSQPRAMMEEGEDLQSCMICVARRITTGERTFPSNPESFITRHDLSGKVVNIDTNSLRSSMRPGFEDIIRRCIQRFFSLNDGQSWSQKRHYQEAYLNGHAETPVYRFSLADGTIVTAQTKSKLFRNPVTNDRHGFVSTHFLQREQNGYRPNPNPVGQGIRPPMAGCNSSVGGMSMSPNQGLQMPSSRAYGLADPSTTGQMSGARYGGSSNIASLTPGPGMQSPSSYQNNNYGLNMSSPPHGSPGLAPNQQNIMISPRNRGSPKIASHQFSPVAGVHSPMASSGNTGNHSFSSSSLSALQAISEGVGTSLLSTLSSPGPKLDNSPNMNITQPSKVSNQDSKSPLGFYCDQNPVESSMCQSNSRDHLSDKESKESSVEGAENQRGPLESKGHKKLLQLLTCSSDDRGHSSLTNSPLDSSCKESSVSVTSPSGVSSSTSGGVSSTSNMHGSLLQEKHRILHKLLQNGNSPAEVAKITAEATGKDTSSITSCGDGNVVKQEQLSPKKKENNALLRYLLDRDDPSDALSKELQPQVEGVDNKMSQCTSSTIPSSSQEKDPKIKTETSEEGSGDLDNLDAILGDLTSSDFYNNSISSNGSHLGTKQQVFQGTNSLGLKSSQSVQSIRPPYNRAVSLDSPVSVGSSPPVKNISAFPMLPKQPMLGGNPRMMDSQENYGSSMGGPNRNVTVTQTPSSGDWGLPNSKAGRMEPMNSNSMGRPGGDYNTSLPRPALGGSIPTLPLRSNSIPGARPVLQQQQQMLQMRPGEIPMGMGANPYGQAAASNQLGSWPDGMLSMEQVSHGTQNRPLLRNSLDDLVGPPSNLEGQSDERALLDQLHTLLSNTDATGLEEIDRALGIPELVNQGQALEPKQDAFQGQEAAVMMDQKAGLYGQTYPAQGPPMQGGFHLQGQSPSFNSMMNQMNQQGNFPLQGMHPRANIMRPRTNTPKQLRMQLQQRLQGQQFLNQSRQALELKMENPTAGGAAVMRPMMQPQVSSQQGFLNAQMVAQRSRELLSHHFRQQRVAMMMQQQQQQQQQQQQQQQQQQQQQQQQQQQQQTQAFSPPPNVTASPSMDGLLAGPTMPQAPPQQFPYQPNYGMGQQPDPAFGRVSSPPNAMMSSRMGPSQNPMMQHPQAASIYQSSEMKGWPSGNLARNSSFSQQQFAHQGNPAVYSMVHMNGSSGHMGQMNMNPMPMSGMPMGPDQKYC

Molecular target: Nuclear receptor coactivator 3 (Homo sapiens) (UniProt Q9Y6Q9)
Experiment: NCOA3 GAL4-fusion reporter inhibition – cell-based, luminescence, primary screen (AID 588352);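 further: 0% = DMSO-treated cells and 100% = gossypol-treated cells at 36 µM; higher means less SRC3-driven luciferase light from the GAL4 reporter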
Conditions: HEK293 GAL4-SRC3 luciferase reporter, at 3.6 µM, hits give high values

Compound | inhibition
O=[N+]([O-])c1cc([N+](=O)[O-])c(Nc2ccc(Cl)cc2)c([N+](=O)[O-])c1 | inactive: -28.6%
CP(=O)(Nc1ccccc1F)Oc1ccccc1 (configuration not stated) | inactive: 13.3%
CC(C)c1ccc(OP(C)(=O)Nc2ccc(SC(F)(F)F)cc2)cc1 (configuration not stated) | inactive: 12.7%
O=C(OC1CN2CCC1CC2)c1ccc([N+](=O)[O-])cc1 (configuration not stated) | inactive: -2.23%
O=C(OCCN1CCN(CCOCc2ccccc2)CC1)C(O)(c1ccccc1)c1ccccc1 | inactive: 17.6%
COc1ccc2c(c1O)-c1c(O)c(OC)cc3c1[C@H](C2)[N+](C)(C)CC3.O=[N+]([O-])c1cc([N+](=O)[O-])c([O-])c([N+](=O)[O-])c1[O-] | inactive: -5%
CCOC(=O)c1ccc(NP(C)(=O)Oc2ccc(F)cc2)cc1 (configuration not stated) | inactive: 0.75%
COc1ccc(OP(C)(=O)Nc2ccc(SC(F)(F)F)cc2)cc1 (configuration not stated) | inactive: 14.1%
Cc1c([N+](=O)[O-])cc([N+](=O)[O-])c(Br)c1[N+](=O)[O-] | inactive: -23.1%
CCN(CC)CCCOC(=O)C(O)(c1ccccc1)C1CCCCC1 (configuration not stated) | inactive: 4%
CP(=O)(Nc1ccccc1)Oc1ccc(F)cc1 (configuration not stated) | inactive: -1.57%
O=[N+]([O-])c1cc([N+](=O)[O-])c(OC2CCCCC2O)c([N+](=O)[O-])c1 (configuration not stated) | inactive: -24.9%
CCCCCOc1ccc(NP(C)(=O)Oc2ccc(Cl)cc2Cl)cc1 (configuration not stated) | inactive: 6.04%
COc1ccc(OP(C)(=O)Nc2cccc(Br)c2)cc1 (configuration not stated) | inactive: 8.71%
CN(C)CCOC(=O)C(O)(c1ccccc1)C1CCCCC1 (configuration not stated) | inactive: -13.5%
COc1ccc(NP(C)(=O)Oc2ccccc2OC)cc1 (configuration not stated) | inactive: 15.6%
O=[N+]([O-])c1ccc(OP2(=O)COCCO2)cc1 (configuration not stated) | inactive: -9.68%
Cc1cc(-c2cccc3ccccc23)c(C)cn1.O=[N+]([O-])c1cc([N+](=O)[O-])c(O)c([N+](=O)[O-])c1 | inactive: 0.51%
O=[N+]([O-])c1cc([N+](=O)[O-])c(NCC2CCS(=O)(=O)C2)c([N+](=O)[O-])c1 (configuration not stated) | inactive: -11.4%
Cc1c(C(c2ccc3c(c2)OCO3)c2c(C)n(C)n(-c3ccccc3)c2=O)c(=O)n(-c2ccccc2)n1C.O=[N+]([O-])c1cc([N+](=O)[O-])c(O)c([N+](=O)[O-])c1 | inactive: 13.8%
CP(=O)(Nc1ccc(SC(F)(F)F)cc1)Oc1ccc(F)cc1 (configuration not stated) | inactive: 14.9%
CCOP(C)(=S)SCC(=O)NC(C)(CC)C(=O)O (configuration not stated) | inactive: -10.5%
CP(=O)(Nc1ccc2c(c1)OCCO2)Oc1ccccc1 (configuration not stated) | inactive: 13.5%
Cc1ccccc1NP(C)(=O)Nc1ccccc1C | inactive: 13.3%

Compound | inhibition
COc1ccc(OP(C)(=O)Nc2ccc(Br)cc2)cc1 (configuration not stated) | inactive: 17.8%
CCN(CC)CC(O)COC(=O)C(O)(c1ccccc1)C1CCCCC1 (configuration not stated) | inactive: 17.6%
O=C(OCCCN1CCCC1)C(O)(c1ccccc1)C1CCCCC1 (configuration not stated) | inactive: 9.65%
COc1ccccc1OP(C)(=O)Nc1c(C)n(C)n(-c2ccccc2)c1=O (configuration not stated) | inactive: 0.87%
CCc1ccc(OP(C)(=O)Nc2cccnc2)cc1 (configuration not stated) | inactive: 8.79%
CP(=O)(Oc1ccccc1)N1CCOC1=O (configuration not stated) | inactive: -3.2%
CC(C)(C)c1ccc(OP(C)(=O)O)cc1 | inactive: 3.89%
COc1ccccc1OP(C)(=O)Nc1ccccc1Br (configuration not stated) | inactive: 6.49%
CP(=O)(Nc1ccc(Cl)cc1)Oc1ccc(F)cc1 (configuration not stated) | inactive: 15.1%
CN(C)C(=O)c1c([N+](=O)[O-])cc([N+](=O)[O-])cc1[N+](=O)[O-] | inactive: 6.34%
CCOC(=O)c1ccc(NP(C)(=O)Oc2ccc(Cl)cc2)cc1 (configuration not stated) | inactive: -0.39%
CP(=O)(OC12CC3CC(CC(C3)C1)C2)OC12CC3CC(CC(C3)C1)C2 | inactive: 12.1%
Cc1cc(C)cc(OP(C)(=O)Nc2cccc(C(F)(F)F)c2)c1 (configuration not stated) | inactive: 7.57%
O=C1C(O)=C([N+](=O)[O-])C(=O)C(O)=C1[N+](=O)[O-] | inactive: -4.47%
COc1ccccc1OP(C)(=O)Nc1ccc(C)c(C)c1 (configuration not stated) | inactive: 5.49%
COc1ccc(OP(C)(=O)Nc2ccccc2Br)cc1 (configuration not stated) | inactive: -19.6%
CP(=O)(OCCOc1ccccc1)OCCOc1ccccc1 | inactive: 14.5%
CP(=O)(Nc1ccc(Cl)cc1Cl)Oc1ccccc1 (configuration not stated) | inactive: 25.2%
CCCCCCCCCCCCCCCC1C[N+](C)(C)CCOP(C)(=O)O1 (configuration not stated) | inactive: -14.2%
COc1ccccc1OP(C)(=O)Nc1ccc(Br)cc1 (configuration not stated) | inactive: -12.3%
COc1ccc(OP(C)(=O)Nc2ccccn2)cc1 (configuration not stated) | inactive: -9.68%
CN(C)CCOC(=O)C(O)(c1ccccc1)C1CCCC1 (configuration not stated) | inactive: 10.2%
O=[N+]([O-])c1cc([N+](=O)[O-])c(Nc2ccccn2)c([N+](=O)[O-])c1 | inactive: 0.92%
